Here are results for one compound from BindingDB's records for doi:10.1038/nsmb704 (University of California Irvine, 2004).

By UniProt entry, the sequences of proteins in these tests, tags left out. Residues count along the entry.
UniProt P29473, 2-1205 N368D limits assumed: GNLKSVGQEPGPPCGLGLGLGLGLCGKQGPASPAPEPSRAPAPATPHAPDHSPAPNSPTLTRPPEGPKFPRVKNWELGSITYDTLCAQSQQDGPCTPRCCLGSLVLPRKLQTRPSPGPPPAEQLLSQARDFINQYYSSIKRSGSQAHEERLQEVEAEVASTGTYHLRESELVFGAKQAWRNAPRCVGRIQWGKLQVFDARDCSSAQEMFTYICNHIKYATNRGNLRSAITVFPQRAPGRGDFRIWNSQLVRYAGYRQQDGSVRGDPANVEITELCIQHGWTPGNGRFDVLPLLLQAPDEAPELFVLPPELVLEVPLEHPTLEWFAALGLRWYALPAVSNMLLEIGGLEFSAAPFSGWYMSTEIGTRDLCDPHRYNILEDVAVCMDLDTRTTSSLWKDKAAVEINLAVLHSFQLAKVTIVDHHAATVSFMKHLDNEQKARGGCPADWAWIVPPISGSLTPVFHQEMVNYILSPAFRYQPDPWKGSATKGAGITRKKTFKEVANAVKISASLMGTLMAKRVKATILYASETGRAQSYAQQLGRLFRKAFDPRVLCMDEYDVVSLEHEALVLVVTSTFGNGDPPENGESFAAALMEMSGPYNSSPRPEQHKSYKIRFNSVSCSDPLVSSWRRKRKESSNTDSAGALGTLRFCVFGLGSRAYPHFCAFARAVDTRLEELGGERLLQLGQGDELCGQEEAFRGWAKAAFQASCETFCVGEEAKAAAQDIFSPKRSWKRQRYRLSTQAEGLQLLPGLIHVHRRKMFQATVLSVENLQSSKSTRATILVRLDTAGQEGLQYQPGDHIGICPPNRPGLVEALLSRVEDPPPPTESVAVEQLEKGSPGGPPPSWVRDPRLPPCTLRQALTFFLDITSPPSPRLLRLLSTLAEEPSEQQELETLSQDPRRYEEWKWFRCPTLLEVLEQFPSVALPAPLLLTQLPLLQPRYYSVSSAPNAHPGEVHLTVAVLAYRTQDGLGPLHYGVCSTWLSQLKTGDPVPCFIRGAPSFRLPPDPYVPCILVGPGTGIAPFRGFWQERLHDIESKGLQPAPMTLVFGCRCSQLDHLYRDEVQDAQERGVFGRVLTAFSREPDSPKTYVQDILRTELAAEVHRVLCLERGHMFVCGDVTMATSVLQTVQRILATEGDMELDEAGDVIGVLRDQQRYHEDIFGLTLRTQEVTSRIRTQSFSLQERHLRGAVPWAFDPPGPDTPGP

In the assay the target is Nitric oxide synthase, endothelial [N368D] (Bos taurus, UniProt P29473, N368D). Briefly: NOS Enzyme Inhibition Assay. To be noted: pH 7.5; 30 °C.

Take `NC(=O)[C@@H]1C[C@@H](NC(=O)[C@@H](N)CCC/N=C(\N)N[N+](=O)[O-])CN1` [JMC522060 Compound 3]: the Ki (in general, a dissociation constant, usually derived from enzyme kinetics or from competition with a known ligand) is 5.1 µM.
